Measurements taken from ChEMBL document CHEMBL5030506 (J Med Chem, 2021).

By UniProt entry, the sequences of proteins in these tests, tags left out.
UniProt Q96LA8, whole entry: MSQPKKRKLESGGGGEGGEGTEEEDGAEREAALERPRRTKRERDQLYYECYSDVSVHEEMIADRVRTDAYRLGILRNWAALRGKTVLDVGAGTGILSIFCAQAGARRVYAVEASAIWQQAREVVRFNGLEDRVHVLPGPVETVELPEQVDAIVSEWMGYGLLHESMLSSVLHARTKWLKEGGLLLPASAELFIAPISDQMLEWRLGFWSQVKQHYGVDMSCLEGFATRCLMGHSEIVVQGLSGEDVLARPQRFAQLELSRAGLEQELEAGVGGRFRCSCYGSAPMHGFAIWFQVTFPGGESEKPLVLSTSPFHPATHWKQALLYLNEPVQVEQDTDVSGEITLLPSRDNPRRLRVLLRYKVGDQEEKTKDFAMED

Assays:
[1] = target: T1, Protein arginine N-methyltransferase 6 (Homo sapiens, UniProt Q96LA8)
[2] = target: T1, Protein arginine N-methyltransferase 6; remark: listed apart in the source
[3] = target: T1, Protein arginine N-methyltransferase 6; assay: biochemical

IC50 [1] | IC50 [2] | IC50 [3] | SMILES
900 nM | 600 nM | 77 nM | Cc1cc(C)cc([C@@H]2c3cc(C)ccc3NC(=O)CN2C(=O)c2ccc(Br)s2)c1
– | – | 214 nM | Cc1cc(C)cc(C2c3cc(C)ccc3NC(=O)CN2C(=O)c2ccc(Br)s2)c1 (racemic)
